# Laboratory results reported in patent US20220233503A1, “METHODS OF TREATING SEPSIS WITH SYNAPTIC VESICLE 2A AND/OR 2B BINDING CHEMICAL ENTITIES” (INSTITUT PASTEUR, priority 2016, published 2022).
# Experiments:
# [1] = test system: c-fos; experiment: Density of c-fos positive neurons in brain areas after sepsis; type: in vivo; details: septic mice vs placebo, at 1-16 as printed, p<0.05
# Description: Cecal Ligature and puncture. Animals who underwent CLP presented a higher density of neurons expressing c-fos in their nuclei 6 hours after sepsis induction in the central nuclei of the amygdala (8 vs. 3×10^-4.mm^-3, p<0.05). The expression of c-Fos peaked at H6 and decreased to normal values 24 hours after sepsis. C-fos expression pattern in the different brain areas is modified by levetiracetam administration. Levetiracetam lowered specifically c-fos expression in the central amygdala (CeA) at 1-16 (p<0.05).
# [2] = test system: Caspase 3; experiment: Caspase 3 cleavage and apoptotic cell count in brain after sepsis; type: in vivo; details: septic mice, caspase 3 immunohistochemistry cell count
smiles,measurement,setting,value
"CC[C@@H](C(N)=O)N1CCCC1=O (single isomer, unassigned) [levetiracetam]",c-fos expression in the central amygdala (CeA),[1],lowered
same,number of apoptotic cell,[2],without modification
